The values below are quoted from earlier work in patent US20170107257A1, “CYCLIC APELIN ANALOGS” (LANTHIOPEP B.V., priority 2014, published 2017).

The target of the data set is T1, hAPJ (Homo sapiens, UniProt P35414).
T1 sequence (P35414 1-380): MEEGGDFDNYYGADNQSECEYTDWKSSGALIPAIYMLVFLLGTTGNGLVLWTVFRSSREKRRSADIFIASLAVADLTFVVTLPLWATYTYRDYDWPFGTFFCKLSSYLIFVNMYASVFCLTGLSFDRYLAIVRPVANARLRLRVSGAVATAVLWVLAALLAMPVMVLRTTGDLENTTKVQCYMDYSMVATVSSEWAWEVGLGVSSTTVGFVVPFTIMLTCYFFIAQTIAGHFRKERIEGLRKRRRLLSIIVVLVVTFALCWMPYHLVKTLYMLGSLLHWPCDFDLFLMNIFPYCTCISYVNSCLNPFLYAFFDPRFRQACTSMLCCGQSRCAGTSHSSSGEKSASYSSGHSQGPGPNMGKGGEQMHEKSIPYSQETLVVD
The note with it: read-out: EC50 activating the APJ receptor; cited from earlier work.

As for apelin-17, the 50% effective concentration (EC50) was 2.5 nM.
